Results on 1 molecule are retold here after patent US10463690B2, “Method and compositions for treating cancerous tumors” (priority 2016, dated 2019).

The format of the data set is in vivo, Mice (SK1IPYMT 4913×SK1FVB). The protocol:
Part 2—Upon completion of Part 1, Methylene blue (MB) was injected into the same mice that were injected with INtume in Part 1. The purpose was to see how and where the test product spread throughout the body. Mice were euthanized so that internal cavity could be examined. Organs were cut in half for inspection of the extent of saturation.

In the case of `CN(C)c1ccc2nc3ccc(=[N+](C)C)cc-3sc2c1` [methylene blue, Methylene blue], the “distribution of dye after injection into spleen” value is listed as “The entire spleen got saturated with dye but none of the other organs did”.
